## AlphaSeq binding of Ab-14 light chain variants to a spike HR2 peptide

Source: Engelhart et al. 2022 (doi:10.1038/s41597-022-01779-4), MIT Lincoln Laboratory and A-Alpha Bio; data file from the FLAb repository.

Binding partner: SARS-CoV-2 spike HR2 peptide, sequence PDVDLGDISGINAS.

Each scFv is VH, a 15-residue (Gly4Ser)3 linker, VL, as in the parent Ab-14, and differs from it in the CDRs of the light chain only.
VH: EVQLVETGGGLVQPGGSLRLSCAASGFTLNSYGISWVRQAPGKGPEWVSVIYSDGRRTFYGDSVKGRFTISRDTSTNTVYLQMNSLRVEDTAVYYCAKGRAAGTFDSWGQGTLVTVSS
VL: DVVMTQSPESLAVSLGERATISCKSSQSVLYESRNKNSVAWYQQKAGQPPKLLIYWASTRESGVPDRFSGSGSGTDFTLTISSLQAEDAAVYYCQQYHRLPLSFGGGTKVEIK

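The parent was found by panning a naive human phage display library on the peptide. Library AAYL50 holds single substitutions and randomly drawn double and triple substitutions in the CDRs. Affinity was read by AlphaSeq, a pooled yeast mating assay with surface-displayed partners. Mating (16 h, 30 °C) was followed by selection of diploids and sequencing of their barcodes. Read counts were normalised to the haploid input and turned into Kd by a linear fit to BCL2-family pairs of known affinity, for each replicate. Each pool was mated in three replicate cultures.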

Variants are written as CDR1, CDR2 and CDR3 of the light chain (limits as in the source). Parent: KSSQSVLYESRNKNSVA, WASTRES, QQYHRLPLS. Affinities are written as log10 Kd with Kd in nM; a lower number is a better binder. Replicates are averaged; those with no signal do not enter the mean. An entry "nd" has no value in the source: the pair was not observed among the diploids in that replicate. This suggests poor binding but is not conclusive. As a blank, each scFv also met three strains without target: over library AAYL50, 18% of these pairings were detected, typically at 4.19 and seldom below 2.99. The control count says in how many pairings with the empty strains this scFv gave a signal, with their mean in brackets.

| # | CDR-L1 | CDR-L2 | CDR-L3 | log10 Kd (nM) by replicate | mean, log10 nM | empty controls |
|---|---|---|---|---|---|---|
| 1 | KLSQSVLYESRNKNSVA | KASTRES | QGYHRLPLS | 0.00 / 0.30 / 0.06 | 0.12 | 5 of 9 (5.45) |
| 2 | KSGQSVLYESRNKNSVK | WASTRES | QQYHRLILS | nd / 5.09 / 6.17 | 5.63 | 4 of 9 (4.27) |
| 3 | KSSQSVLYESRNKNSPA | WASYRER | QQYHRLPLS | 5.15 / 4.09 / nd | 4.62 | 8 of 9 (4.47) |
| 4 | KSSQRVLYESRAKNSVA | WASTRIS | QQYHRLPLS | 2.12 / 2.58 / 2.72 | 2.47 | 0 of 9 |
| 5 | KSSQSVLYESRNKNSVA | WAITRES | QQYHRLPSS | nd / nd / nd | nd | 0 of 9 |
| 6 | KSSPSVLYESRQKNSVA | WASKRES | QQYHRLPLS | 0.79 / 0.95 / 1.11 | 0.95 | 3 of 9 (5.32) |
| 7 | KSSQSVLYESRNKNSVP | WASTRES | DQYHRLPLC | 5.54 / nd / nd | 5.54 | 0 of 9 |
| 8 | KSSQSVGYESRNKHSVA | WASTRES | WQYHRLPLS | nd / 3.76 / nd | 3.76 | 6 of 9 (4.36) |
| 9 | KSWQSVLYERRNKNSVA | WASTRED | QQYHRLPLS | 2.54 / 2.01 / 1.94 | 2.16 | 0 of 9 |
| 10 | KSSQSVLQESRNKNWVR | WASTRES | QQYHRLPLS | 5.01 / nd / 5.12 | 5.06 | 3 of 9 (4.56) |
| 11 | ISSQSVLYESRNKNSVA | WASTRES | QQEHRLPES | nd / nd / nd | nd | 0 of 9 |
| 12 | KSQQSVLYESRNKNSVA | WASTREA | QQSHRLPLS | nd / nd / nd | nd | 0 of 9 |
| 13 | KSSQSVLYESRNKMSVR | WASTRES | QQYHRLPVS | nd / nd / nd | nd | 2 of 9 (3.41) |
| 14 | KSSQSVLYRSYNKNSVA | WASTRES | QQYHRLQLS | nd / nd / nd | nd | 0 of 9 |
| 15 | KSSQSVLYESRNKNSVW | WASTREF | QQYHRWPLS | nd / nd / nd | nd | 0 of 9 |
| 16 | DSSQSVLYESRNKNSVA | QASTRES | QQYHRKPLS | 4.03 / 3.58 / 3.47 | 3.70 | 3 of 9 (4.29) |
| 17 | KSSQSVLYEIRNKNSVA | WAGTRES | QQYCRLPLS | 3.41 / 3.25 / 2.75 | 3.14 | 3 of 9 (3.76) |
| 18 | KSSQTVLYESRNKNSFA | WASTRES | QQYHRLPLI | nd / nd / nd | nd | 2 of 9 (4.35) |
| 19 | KSSQSVLYEWRNKSSDA | WASTRES | QQYHRLPLS | nd / 4.02 / nd | 4.02 | 3 of 9 (4.18) |
| 20 | KSSCSVLYESRNKNSVA | WASTEES | QQYHCLPLS | nd / nd / nd | nd | 2 of 9 (4.37) |
| 21 | QSSQSVLYESRNKNSVA | WASHRES | QQYPRLPLS | nd / nd / nd | nd | 0 of 9 |
| 22 | KSSQSVLYESYNKNSVM | WASTRES | QQYHREPLS | nd / nd / nd | nd | 0 of 9 |
| 23 | KSSQSVLYESTNKTSVA | WASTRES | QQYHRLLLS | nd / nd / 4.78 | 4.78 | 0 of 9 |
| 24 | ISSQSVLYESRNKNSVA | DASTREP | QQYHRLPLS | -0.25 / 0.06 / -0.23 | -0.14 | 1 of 9 (2.62) |
| 25 | KSSQSVLYKSRNKNSVA | WGSTRES | QQYHRLPLY | 0.92 / 1.27 / 1.06 | 1.08 | 0 of 9 |
| 26 | KRAQSVLYESRNKNSVA | WASTRES | QQLHRLPLS | nd / nd / nd | nd | 1 of 9 (2.82) |
| 27 | KSSQSVLYESRCKNSVH | WASTRES | QQYHRLPSS | nd / nd / 3.56 | 3.56 | 0 of 9 |
| 28 | KPSQMNLYESRNKNSVA | WASTRES | QQYHRLPLS | 1.05 / 1.13 / 1.30 | 1.16 | 2 of 9 (4.65) |
| 29 | KSSQSVLYESRNKNSVA | WASTYVS | QQYHRLPLS | nd / nd / nd | nd | 0 of 9 |
| 30 | KSSQSVLYESRNKNSVA | WASTRQS | QQYHRFHLS | 2.29 / 2.43 / 3.84 | 2.85 | 1 of 9 (3.55) |
| 31 | KSSQSVLYESRNKNSVN | WISTGES | QQYHRLPLS | nd / nd / nd | nd | 0 of 9 |
| 32 | KSSQHVLYESRNKNSVT | WAVTRES | QQYHRLPLS | nd / nd / nd | nd | 2 of 9 (4.00) |
| 33 | KSSQSVLYESRNINSVA | WANTRES | QQYHRLILS | nd / nd / nd | nd | 2 of 9 (3.25) |
| 34 | KSSESVLYESQNKNSVA | WASTRIS | QQYHRLPLS | 0.84 / 1.33 / 1.13 | 1.10 | 1 of 9 (5.06) |
| 35 | KSSQSVLYESRNKNSVA | WASTKES | QQYHRAPLS | 2.82 / 2.03 / 3.51 | 2.79 | 0 of 9 |
| 36 | KSSQQVLYESRNKNYVA | WASTRES | QQYHRLPLS | 3.65 / 2.43 / 2.66 | 2.91 | 2 of 9 (4.30) |
| 37 | KSSQSVLYETRGENSVA | WASTRES | QQYHRLPLS | 0.54 / 0.67 / 0.68 | 0.63 | 2 of 9 (3.04) |
| 38 | KSSQSVLYESRNKNSVA | WASTRES | WQIHTLPLS | nd / nd / 6.02 | 6.02 | 3 of 9 (4.26) |